# Data reported in patent US20260130896A1, “COMPOSITIONS AND METHODS FOR DELIVERY OF OPHTHALMOLOGICAL ACTIVES” (ADS Therapeutics LLC, priority 2023, published 2026).
# Assay: Solubility of atropine in exemplary formulations
# Format: physicochemical
smiles,measurement,setting,value
"CN1[C@@H]2CC[C@H]1C[C@@H](OC(=O)C(CO)c1ccccc1)C2 (some centres unmarked) [Atropine, atropine]",precipitation at 2-8° C.,"10% Captex 355/90% F6H8, 2-8° C.",There was no
same,precipitation at 2-8° C.,"100% Captex 300, 2-8° C.",There was no
